ChEMBL document CHEMBL3632504, “Discovery of 1H-pyrazolo[3,4-b]pyridines as potent dual orexin receptor antagonists (DORAs)” (Bioorg Med Chem Lett, 2015)

The chains behind the UniProt entries cited, without tags or fusion partners.
UniProt O43614, whole entry: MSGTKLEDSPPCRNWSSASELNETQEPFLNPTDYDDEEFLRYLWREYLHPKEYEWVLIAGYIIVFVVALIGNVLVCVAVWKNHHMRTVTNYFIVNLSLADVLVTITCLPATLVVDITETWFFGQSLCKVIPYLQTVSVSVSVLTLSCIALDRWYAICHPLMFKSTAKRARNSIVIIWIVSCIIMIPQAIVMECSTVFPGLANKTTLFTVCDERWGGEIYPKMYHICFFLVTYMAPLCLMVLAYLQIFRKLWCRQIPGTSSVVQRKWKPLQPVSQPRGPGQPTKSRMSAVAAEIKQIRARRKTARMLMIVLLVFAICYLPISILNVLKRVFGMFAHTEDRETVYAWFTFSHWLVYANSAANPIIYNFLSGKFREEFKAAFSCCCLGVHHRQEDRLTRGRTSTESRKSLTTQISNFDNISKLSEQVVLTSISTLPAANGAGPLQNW

Target: Orexin receptor type 2 (Homo sapiens, UniProt O43614)
Assay: Antagonist activity against human orexin 2 receptor after 1 hr by Ca2+ sensitive Fluo4-AM fluorescent dye-based FLIPR assay
Type: functional

`Cc1n[nH]c(C)c1[C@@H](C)NC(=O)COc1cc(C(F)(F)F)c2c(-c3ccccc3)nn(C)c2n1` was tested, and the Ki was greater than 2000 nM.
